Target: DENV3 NS2B/NS3 protease (cNS2B-G4SG4-NS3pro185) (dengue virus serotype 3 (DENV3))
Assay: FRET-based enzymatic cleavage inhibition assay

wild-type aprotinin (from UniProt P00974 36-93) (natural protein)
Ki: 3.7 nM

From paper PMC5221572
